Patent US20070213394A1 (priority 2004, published 2007)

By UniProt entry, the sequences of proteins in these tests, tags left out. Where a name states a change or a piece, a line headed by the entry shows the natural chain unless it says otherwise.
UniProt P41145: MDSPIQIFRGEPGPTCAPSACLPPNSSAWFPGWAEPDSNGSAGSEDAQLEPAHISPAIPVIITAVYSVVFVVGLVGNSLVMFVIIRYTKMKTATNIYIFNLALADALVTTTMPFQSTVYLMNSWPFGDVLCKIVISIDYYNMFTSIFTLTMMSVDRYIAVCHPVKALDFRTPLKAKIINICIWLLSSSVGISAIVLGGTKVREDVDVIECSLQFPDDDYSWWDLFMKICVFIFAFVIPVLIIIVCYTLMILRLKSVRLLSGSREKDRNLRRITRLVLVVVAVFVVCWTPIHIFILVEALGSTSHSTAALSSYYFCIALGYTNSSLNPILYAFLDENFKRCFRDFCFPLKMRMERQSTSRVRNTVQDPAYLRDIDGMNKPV

Key:
[1] = molecular target: T1, human kappa opioid receptor (Homo sapiens, UniProt P41145); experiment: [35S]GTPγS binding assay, membranes of CHO-hKOR cells; format: biochemical; conditions: Table 1, N.A. is No Affinity; for Efficacy: Percent of the maximal effect of U50,488H; for EC50: human kappa opioid receptor
[2] = molecular target: T1, human kappa opioid receptor; conditions: Table 1

| SMILES | Efficacy [1] | EC50 [1] | Ki [2] |
| --- | --- | --- | --- |
| COCO[C@H]1C[C@@H](C(=O)OC)[C@]2(C)CC[C@@H]3C(=O)O[C@H](c4ccoc4)C[C@]3(C)C2C1=O (stereo partly drawn) | 100% | 92 nM | 30 nM |
| COCO[C@H]1C[C@@H](C(=O)OC)[C@]2(C)CC[C@H]3C(=O)O[C@H](c4ccoc4)C[C@]3(C)C2C1=O (stereo partly drawn) | 98% | 0.6 nM | 0.4 nM |
